Assay results published in patent US20250368678A1, “19-NOR-C3,3-DISUBSTITUTED C21-AZACYCLO-S[…] AND METHOD FOR USING SAME” (SHANDONG LUYE PHARMACEUTICAL CO., LTD., priority 2022, published 2025).

Columns and labels:
[1] = In vitro liver microsomal stability assay, rat; type: in vitro ADME
Description: (§1) 1) Preparation of working solutions of test samples: The test samples were diluted with acetonitrile to 100 M.
(§2) 2) Preparation of a working solution of liver microsomes: liver microsomes were diluted with 100 mM phosphate-buffered saline to 0.56 mg/mL.
(§3) 3) Preparation of a working solution of reduced nicotinamide adenine dinucleotide (NADPH): A proper amount of NADPH was weighed out and diluted with phosphate-buffered saline to 20 mM, and an equal volume of a 60 mM MgCl2 solution was added.
(§4) 4) Preparation of a stop solution: Tolbutamide was diluted with acetonitrile to 20 ng/mL, serving as a stop solution containing an internal standard.
(§5) 1) Incubation anti-adsorption EP tubes were prepared and labeled with species, test/control sample, time points (0, 5, 10, 20, 30, 60 min, Blank60, and NCF60), etc.
(§6) 2) 2 L of test or control sample working solution, diluted with acetonitrile to 100 M, and 178 L of liver microsome working solution were added to each tube. For the Blank60 tube, 2 L of acetonitrile was added instead of a test sample. The tubes were pre-incubated in a 37° C. water bath for about 10 min, with each sample tested in triplicate.
(§7) 3) After the pre-incubation was complete, 20 L of NADPH working solution was added to each tube except for the 0 min and NCF60 tubes to start reactions, and 20 L of phosphate-buffered saline (containing 30 mM MgCl2) was added to the NCF60 tube. In the incubation system, the final concentrations of the test and control samples were 1 M, the final concentration of liver microsomes was 0.5 mg/mL, the final concentration of NADPH was 1 mM, and the final concentration of MgCl2 was 3 mM.
(§8) 4) For the 0 min sample, 600 L of stop solution was added before adding the NADPH working solution. After each sample was incubated for its respective time, 600 L of stop solution was added to stop the reaction.
(§9) 5) After the reaction was stopped, each sample was vortexed for 30 s and then centrifuged at 13,500 rpm for 10 min. 100 L of the supernatant was transferred to an EP tube, and 100 L Milli-Q water was added. The mixture was well mixed by vortexing and analyzed by LC-MS/MS.
(§10) 6) Testosterone and dextromethorphan were used as positive control samples under the same conditions to assess the stability and reliability of the system.
(§11) Parameters of the test samples, including their half-lives, intrinsic clearance rates in liver microsomes, and hepatic intrinsic clearance rates, were calculated based on the percentage of test sample remaining.

[2] = In vitro liver microsomal stability assay, human; type: in vitro ADME
Description: as §1, §2, §3, §4, §5, §6, §7, §8, §9, §10, §11

## C[C@@]1(O)CC[C@H]2[C@H](CC[C@@H]3[C@@H]2CC[C@]2(C)[C@@H](C(=O)Cn4ncn(-c5cccc(F)c5)c4=O)CC[C@@H]32)C1
[1]; Rat liver microsomes
  CLint(mic): 486 μL/min/mg protein
  Clint(liver): 52.5 L/h/kg
  T1/2: 2.9 min
[1]; Rat liver microsomes 0.5 mg/mL, NADPH
  Remaining amount % at 60 min: 5.61%
[2]; Human liver microsomes
  CLint(mic): 20 μL/min/mg protein
  Clint(liver): 1.68 L/h/kg
  T1/2: 69.3 min
[2]; Human liver microsomes 0.5 mg/mL, NADPH
  Remaining amount % at 60 min: 53.59%
